Results from patent publication US20260125400A1, “TYK2 DEGRADERS AND USES THEREOF” (Kymera Therapeutics, Inc., priority 2023, published 2026).
Where two headings read alike, the source gives them in different places.

By UniProt entry, the sequences of proteins in these tests, tags left out.
UniProt P29597, whole entry: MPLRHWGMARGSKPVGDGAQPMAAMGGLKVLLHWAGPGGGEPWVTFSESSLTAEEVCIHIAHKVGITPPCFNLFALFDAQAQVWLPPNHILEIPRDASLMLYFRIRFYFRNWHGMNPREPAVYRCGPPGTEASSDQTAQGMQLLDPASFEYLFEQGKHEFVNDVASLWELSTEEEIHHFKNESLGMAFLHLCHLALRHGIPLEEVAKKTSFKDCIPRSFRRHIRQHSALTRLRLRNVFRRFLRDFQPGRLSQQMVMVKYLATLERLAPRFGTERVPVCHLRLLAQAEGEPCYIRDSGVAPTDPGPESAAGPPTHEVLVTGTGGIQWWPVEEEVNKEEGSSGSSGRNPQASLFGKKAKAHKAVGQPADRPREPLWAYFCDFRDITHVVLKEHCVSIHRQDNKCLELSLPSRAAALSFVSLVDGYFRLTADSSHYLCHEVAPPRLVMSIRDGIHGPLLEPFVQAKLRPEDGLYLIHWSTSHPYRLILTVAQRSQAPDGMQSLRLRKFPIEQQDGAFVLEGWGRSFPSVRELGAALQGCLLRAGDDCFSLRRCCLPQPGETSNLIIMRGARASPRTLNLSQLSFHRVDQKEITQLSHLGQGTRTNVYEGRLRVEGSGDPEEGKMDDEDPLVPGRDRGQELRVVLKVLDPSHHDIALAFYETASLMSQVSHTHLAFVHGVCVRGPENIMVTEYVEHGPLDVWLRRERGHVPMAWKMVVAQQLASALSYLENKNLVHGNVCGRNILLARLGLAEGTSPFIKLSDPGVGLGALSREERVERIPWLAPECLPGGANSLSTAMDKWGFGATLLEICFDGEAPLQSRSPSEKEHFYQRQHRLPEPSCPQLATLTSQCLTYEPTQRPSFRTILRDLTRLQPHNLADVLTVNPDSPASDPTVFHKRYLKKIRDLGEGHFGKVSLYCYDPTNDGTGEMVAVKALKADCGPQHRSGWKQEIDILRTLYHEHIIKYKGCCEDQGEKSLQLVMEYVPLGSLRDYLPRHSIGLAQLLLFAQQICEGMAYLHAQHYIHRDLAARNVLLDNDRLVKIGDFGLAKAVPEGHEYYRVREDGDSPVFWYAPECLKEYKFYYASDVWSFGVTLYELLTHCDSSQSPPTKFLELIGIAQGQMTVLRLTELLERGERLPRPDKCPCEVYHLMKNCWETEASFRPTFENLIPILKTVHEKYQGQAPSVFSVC

Target: TYK2 (Homo sapiens, UniProt P29597)
Experiment: TYK2 MSD degradation in OCI-LY10 cells
Conditions: for TYK2 MSD OCI-LY10 Dmax %: 4 to 24 hours incubation
Method: Example 7. TYK2 MSD Degradation
Degradation of TYK2 in cells was quantitatively measured using Meso Scale Discovery (MSD) technology. OCI-LY10 cells were seeded in 96-well plates with a density of 0.4 million cells per well in 100 μl fresh media. Compounds were then added to the assay plates with a final top concentration of 1 to 10 μM in a 1:3 dilution series with total of 9 doses. The assay plates were then incubated for 4 to 24 hours at 37° C. under […]. The assay plates were then centrifuged for 5 minutes, and the cell pellets were treated with 100 μl/well RIPA lysis buffer (Boston Bioproducts, BP-115D) with protease and phosphatase inhibitors (Roche, 05892791001 and 04906837001). To prepare MSD assay plates (MSD, L15XA), the plates were coated with the capture antibody (Santa Cruz Biotechnology, SC-5271) in PBS, at 40 μl/well. The plates were then incubated overnight at 4° C., washed 3 times with 150 μl/well TBST buffer (Cell Signaling Technology, 9997S) and blocked with 150 μl/well blocking buffer (MSD, R93BA-4). Cell lysates were then added to MSD assay plates and the plates were incubated at room temperature for 1 hour. The plates were then washed 3 times with 150 μl/well TBST buffer and 25 μl/well primary detection antibody (Cell Signaling Technology, #9312). The assay plates were then incubated at room temperature for 1 hour, washed 3 times with 150 μl/well TBST buffer, and 25 μl/well secondary detection antibody, SULFO-TAG anti-rabbit antibody (MSD, R32AB-1) were added. The assay plates were then incubated at room temperature for 1 hour, washed 3 times with 150 μl/well TB ST buffer, and 150 μl/well MSD reading buffer (MSD, R92TC-2) were added. The plates were then analyzed by an MSD reader. The data was analyzed by GraphPad Prism and the dose dependent TYK2 degradation was fit using the four-parameter inhibitor vs. response nonlinear regression.
The letter codes for TYK2 DC50 include: A (<1 nM); B (i to <10 nM); C (10 to 100 nM); D (>100 nM); and E (not tested). The letter codes for TYK2 Dmax % include: A (>90%); B (90 to >75%); C (75 to 50%); D (<50%); and E (not tested).

[1] = TYK2 degradation in OCI-LY10 cells
[2] = read-out: TYK2 MSD OCI-LY10 Rel-DC50, TYK2 degradation in OCI-LY10 cells, 4 to 24 hours incubation
[3] = read-out: TYK2 MSD OCI-LY10 Rel-DC50, OCI-LY10 cells, 4 to 24 hours incubation

CNc1cc(N2CCc3c(-c4ccc(CN5CC6(CCN(C(=O)c7ccc(Cl)c(C8CCC(=O)NC8=O)c7)CC6)C5)cn4)cccc32)nn2c(C(=O)N[C@@H]3C[C@@H]3F)cnc12 (some centres unmarked)
TYK2 MSD OCI-LY10 Dmax % [1]: B (B (90 to >75%))
DC50 [2]: < 1 nM

CO[C@]1(c2cc(-c3ccc(CN4CC5(CCN(C(=O)c6ccc(Cl)c(N7CCC(=O)NC7=O)c6)CC5)C4)cn3)cc(-c3cn(C)c4cnc(NC(C)=O)cc34)n2)CCOC1
TYK2 MSD OCI-LY10 Dmax % [1]: B (B (90 to >75%))
DC50 [2]: < 1 nM

CNc1cc(N2CCc3c(CN4CCC(N5CCC6(CCN(C(=O)c7ccc(Cl)c(N8CCC(=O)NC8=O)c7)C6)CC5)C(F)(F)C4)cccc32)nn2c(C(=O)N[C@@H]3C[C@@H]3F)cnc12 (some centres unmarked)
TYK2 MSD OCI-LY10 Dmax % [1]: A (A (>90%))
DC50 [2]: < 1 nM

CNc1cc(N2CCc3c(-c4ncc(C(C)N5CC6(CCN(C(=O)c7ccc(Cl)c(N8CCC(=O)NC8=O)c7)CC6(F)F)C5)cc4F)cccc32)nn2c(C(=O)NC3CCC3OC)cnc12 (centres unmarked)
TYK2 MSD OCI-LY10 Dmax % [1]: A (A (>90%))
DC50 [2]: < 1 nM

CNc1cc(N2CCc3c(C#CCN4CCN(C5CCN(C(=O)c6ccc(Cl)c(N7CCC(=O)NC7=O)c6)CC5)CC4)cccc32)nn2c(C(=O)N[C@@H]3C[C@@H]3F)cnc12
TYK2 MSD OCI-LY10 Dmax % (OCI-LY10 cells): B (B (90 to >75%))
DC50 [3]: < 1 nM

CNc1cc(N2CCc3c2cccc3C23CC(CN4CCN(C5CCN(C(=O)c6cc(N7CCC(=O)NC7=O)c(Cl)c(C)n6)CC5(F)F)CC4)(C2)C3)nn2c(C(=O)N[C@@H]3CC[C@H]3OC)cnc12 (some centres unmarked)
TYK2 MSD OCI-LY10 Dmax % [1]: B (B (90 to >75%))
DC50 [2]: < 1 nM

CNc1cc(N2CCc3c(CN4CCC(N5CCC6(CCC(N(C)c7ccc(Cl)c(N8CCC(=O)NC8=O)c7)CC6)CC5)C(F)(F)C4)cccc32)nn2c(C(=O)N[C@@H]3CC[C@H]3OC)cnc12 (some centres unmarked)
TYK2 MSD OCI-LY10 Dmax % [1]: B (B (90 to >75%))
DC50 [2]: < 10 nM

CNc1cc(N2CCc3c(-c4cc(CN5CCN(Cc6ccc(Cl)c(C7CCC(=O)NC7=O)c6)CC5)ccn4)cccc32)nn2c(C(=O)N[C@@H]3C[C@@H]3F)cnc12 (some centres unmarked)
TYK2 MSD OCI-LY10 Dmax % [1]: D (D (<50%))
DC50 [2]: > 100 nM

CNc1cc(N2CCc3c(-c4ccc([C@@H](C)N5CC6(CCN(C(=O)c7ccc(Cl)c(N8CCC(=O)NC8=O)c7)CC6(F)F)C5)cn4)cccc32)nn2c(C(=O)N[C@@H]3CC[C@H]3OC)cnc12
TYK2 MSD OCI-LY10 Dmax % [1]: A (A (>90%))
DC50 [2]: < 1 nM

CNc1cc(N2CCc3c(-c4ccc(CN5CCC6(CCN(C(=O)c7ccc(Cl)c(N8CCC(=O)NC8=O)c7)CC6)C(F)(F)C5)nn4)cccc32)nn2c(C(=O)N[C@@H]3C[C@@H]3F)cnc12
TYK2 MSD OCI-LY10 Dmax % [1]: A (A (>90%))
DC50 [2]: < 1 nM

CNc1cc(N2CCc3c(CN4CCC(N5CCC(C6CCN(C(=O)c7cc(Cl)c(C)c(N8CCC(=O)NC8=O)c7)CC6)CC5)C(F)(F)C4)cccc32)nn2c(C(=O)N[C@@H]3CC[C@H]3OC)cnc12 (some centres unmarked)
TYK2 MSD OCI-LY10 Dmax % [1]: A (A (>90%))
DC50 [2]: < 1 nM

CNc1cc(N2CCc3c2cccc3-n2cc(CN3CCC4(CCN(C(=O)c5cc(C)c(Cl)c(N6CCC(=O)NC6=O)c5)CC4)C(F)(F)C3)cn2)nn2c(C(=O)N[C@@H]3CC[C@H]3OC)cnc12
TYK2 MSD OCI-LY10 Dmax % [1]: B (B (90 to >75%))
DC50 [2]: < 1 nM

CNc1cc(N2CCc3c(N4CCC[C@H](CN5CCN(c6ccc7c(c6)n(C)c(=O)n7C6CCC(=O)NC6=O)CC5)C4)cccc32)nn2c(C(=O)NC3CC3)cnc12 (some centres unmarked)
TYK2 MSD OCI-LY10 Dmax % [1]: D (D (<50%))
DC50 [2]: > 100 nM

CNc1cc(N2CCc3c(CN4CCC(N5CCC6(CCN(C(=O)c7cc(C)c(Cl)c(N8CCC(=O)NC8=O)c7)CC6)CC5)C(F)(F)C4)cccc32)nn2c(C(=O)N[C@@H]3CC[C@H]3OC)cnc12 (some centres unmarked)
TYK2 MSD OCI-LY10 Dmax % (OCI-LY10 cells): A (A (>90%))
DC50 [3]: < 1 nM

CNc1cc(N2CCc3c(CN4CCC(N5CCC6(CCN(C(=O)c7ccc(Cl)c(N8CCC(=O)NC8=O)c7)CC6)CC5)C(F)(F)C4)cc(F)cc32)nn2c(C(=O)N[C@@H]3CC[C@H]3OC)cnc12 (some centres unmarked)
TYK2 MSD OCI-LY10 Dmax % [1]: A (A (>90%))
DC50 [2]: < 1 nM

CO[C@@]1(c2cc(C)cc(-c3cn(C4CN(CC5CCN(c6ccc(NC7CCC(=O)NC7=O)cc6F)CC5)C4)c4cnc(NC(C)=O)cc34)n2)CCOC1 (some centres unmarked)
TYK2 MSD OCI-LY10 Dmax % [1]: D (D (<50%))
DC50 [2]: > 100 nM

CCNC(=O)c1nnc(Nc2ccc(CN3CCC4(CN(c5ccc(NC6CCC(=O)NC6=O)cc5F)C4)C(F)(F)C3)cn2)cc1Nc1cccc(F)c1OC (centres unmarked)
TYK2 MSD OCI-LY10 Dmax % [1]: D (D (<50%))
DC50 [2]: > 100 nM

CNc1cc(N2CCc3c(CN4CC[C@@H](N5CCC6(CCN(C(=O)c7cc(C)c(Cl)c(N8CCC(=O)NC8=O)c7)CC6)CC5)C(F)(F)C4)cccc32)nn2c(C(=O)N[C@@H]3CC[C@H]3OC)cnc12
TYK2 MSD OCI-LY10 Dmax % [1]: A (A (>90%))
DC50 [2]: < 1 nM

CNc1cc(N2CCc3c(-c4ccc(CN5CCN(Cc6ccc(Cl)c(C7CCC(=O)NC7=O)c6)CC5)cn4)cccc32)nn2c(C(=O)N[C@@H]3C[C@@H]3F)cnc12 (some centres unmarked)
TYK2 MSD OCI-LY10 Dmax % [1]: D (D (<50%))
DC50 [2]: < 10 nM

CNc1cc(N2CCc3c(-c4ccc(CC5CC6(CCN(C(=O)c7ccc(Cl)c(N8CCC(=O)NC8=O)c7)CC6)C5)cn4)cccc32)nn2c(C(=O)N[C@@H]3C[C@@H]3F)cnc12
TYK2 MSD OCI-LY10 Dmax % (OCI-LY10 cells): B (B (90 to >75%))
DC50 [3]: < 10 nM

CNc1cc(N2CCc3c(-c4ccc(CN5CC6(CCC(Oc7ccc(Cl)c(C8CCC(=O)NC8=O)c7)CC6)C5)cn4)cccc32)nn2c(C(=O)N[C@@H]3C[C@@H]3F)cnc12 (some centres unmarked)
TYK2 MSD OCI-LY10 Dmax % (OCI-LY10 cells): C (C (75 to 50%))
DC50 [3]: < 10 nM

CNc1cc(N2CCc3c(-c4ncc(CN5CC6(CCN(C(=O)c7cc(C)c(Cl)c(N8CCC(=O)NC8=O)c7)CC6(F)F)C5)cc4F)cccc32)nn2c(C(=O)N[C@@H]3CCC3(F)F)cnc12
TYK2 MSD OCI-LY10 Dmax % [1]: A (A (>90%))
DC50 [2]: < 1 nM

CNc1cc(N2CCc3c(CN4CC[C@H](N5CCC6(CC5)CN(C(=O)c5cc(N7CCC(=O)NC7=O)c(Cl)c(C)n5)C6)C(F)(F)C4)cccc32)nn2c(C(=O)N[C@@H]3CC[C@H]3OC)cnc12
TYK2 MSD OCI-LY10 Dmax % [1]: A (A (>90%))
DC50 [2]: < 1 nM

CNc1cc(N2CCc3c(-c4ccc(N5CC6(CCN(C(=O)c7ccc(C8CCC(=O)NC8=O)c(Cl)c7)CC6)C5)cn4)cccc32)nn2c(C(=O)N[C@@H]3C[C@@H]3F)cnc12 (some centres unmarked)
TYK2 MSD OCI-LY10 Dmax % (OCI-LY10 cells): B (B (90 to >75%))
DC50 [3]: < 10 nM

CNC(=O)c1cnc(Nc2ccc(C(=O)NCCCCCCCCCCCCCCN(C(=O)[C@H]3CCCN(c4cncc5ccccc45)C3)c3ccc(=O)n(CC(=O)OC)c3)cn2)cc1Nc1cccc(-c2ncccn2)c1OC
TYK2 MSD OCI-LY10 Dmax % [1]: D (D (<50%))
DC50 [2]: > 100 nM

CNc1cc(N2CCc3c(-c4ccc(CN5CC[C@H](N6CCN(c7ccc8c(c7)n(C)c(=O)n8C7CCC(=O)NC7=O)CC6)C(F)(F)C5)cn4)cccc32)nn2c(C(=O)N[C@@H]3C[C@@H]3F)cnc12 (some centres unmarked)
TYK2 MSD OCI-LY10 Dmax % [1]: B (B (90 to >75%))
DC50 [2]: < 1 nM

CNc1cc(N2CCc3c(CN4CC[C@H](N5CCC6(CCN(C(=O)c7cc(N8CCC(=O)NC8=O)c(Cl)c(C)n7)CC6)CC5)C(F)(F)C4)cccc32)nn2c(C(=O)N[C@@H]3CC[C@H]3OC)cnc12
TYK2 MSD OCI-LY10 Dmax % [1]: A (A (>90%))
DC50 [2]: < 1 nM

CO[C@@]1(c2cc(C)cc(-c3cn(C4CCN(CC5CCN(c6ccc(NC7CCC(=O)NC7=O)cc6F)CC5)CC4)c4cnc(NC(C)=O)cc34)n2)CCOC1 (some centres unmarked)
TYK2 MSD OCI-LY10 Dmax % [1]: D (D (<50%))
DC50 [2]: > 100 nM

CNc1cc(N2CCc3c(-c4ncc(CN5CC6(CCN(C(=O)c7cc(N8CCC(=O)NC8=O)c(Cl)c(C)n7)CC6(F)F)C5)cc4F)cccc32)nn2c(C(=O)N[C@@H]3CC[C@H]3OC)cnc12
TYK2 MSD OCI-LY10 Dmax % [1]: A (A (>90%))
DC50 [2]: < 1 nM

CNc1cc(N2CCc3c(-c4ccc(CN5CCC(N6CC(CN7CCN(c8ccc9c(c8)n(C)c(=O)n9C8CCC(=O)NC8=O)CC7)C6)C(F)(F)C5)cn4)cccc32)nn2c(C(=O)N[C@@H]3C[C@@H]3F)cnc12 (some centres unmarked)
TYK2 MSD OCI-LY10 Dmax % (OCI-LY10 cells): B (B (90 to >75%))
DC50 [3]: < 1 nM

CNc1cc(N2CCc3c(N4CCO[C@@H](CN5CCN(c6ccc7c(c6)n(C)c(=O)n7C6CCC(=O)NC6=O)CC5)C4)cccc32)nn2c(C(=O)NC3CC3)cnc12 (some centres unmarked)
TYK2 MSD OCI-LY10 Dmax % [1]: C (C (75 to 50%))
DC50 [2]: < 1 nM

CCNC(=O)c1nnc(Nc2ccc(CN(C)C3CCN(c4cccc5c4n(C)c(=O)n5C4CCC(=O)NC4=O)CC3(F)F)cn2)cc1Nc1cccc(F)c1OC (centres unmarked)
TYK2 MSD OCI-LY10 Dmax % [1]: D (D (<50%))
DC50 [2]: > 100 nM

COC1(c2cc(-c3ccc(CN4CCC(N5CCN(c6ccc7c(C8CCC(=O)NC8=O)nn(C)c7c6)CC5)C(F)(F)C4)cn3)cc(-c3cn(C)c4cnc(NC(C)=O)cc34)n2)CCOC1 (centres unmarked)
TYK2 MSD OCI-LY10 Dmax % [1]: B (B (90 to >75%))
DC50 [2]: < 1 nM

CNc1cc(N2CCc3c(-c4ccc([C@H](C)N5CC6(CCN(C(=O)c7ccc(Cl)c(N8CCC(=O)NC8=O)c7)CC6(F)F)C5)cn4)cccc32)nn2c(C(=O)N[C@@H]3CC[C@H]3OC)cnc12
TYK2 MSD OCI-LY10 Dmax % [1]: A (A (>90%))
DC50 [2]: < 1 nM
